Assay results from patent publication US6905839B2, “In vivo phenotyping for human cytochrome P450 3A activity” (priority 2002, dated 2005).

Tested on: CYP3A
Conditions: male, human, in vivo
Method: The subject was not receiving any medication. […] Urine samples were obtained at a timed period (0-2, 2-4, 4-6, 6-8, 8-10, and 10-12) and the volume of the urine samples was noted. The recommended frequency of blood sampling is at least one time during a 2-hour urine collection. Urinary concentrations of cortisol and 6β-hydroxycortisol and plasma concentrations of cortisol were determined by HPLC and GC-MS, respectively. “The endogenous metabolic clearance (CLm(6β)-endo)” was calculated by Equation 4.
c) The fractional metabolic clearance for the 6β-hydroxylation of endogenous cortisol (CLm(6β)) is expressed as the amount of urinary excreted 6β-hydroxycortisol (X(6β)) divided by the area under the concentration-time curve of cortisol (AUC(F)); that is, CLm(6β)=X(6β)/AUC(F).

With `CC[C@H]1OC(=O)[C@H](C)[C@@H](O[C@H]2C[C@@](C)(OC)[C@@H](O)[C@H](C)O2)[C@H](C)[C@@H](O[C@@H]2O[C@H](C)C[C@H](N(C)C)[C@H]2O)[C@](C)(OC)C[C@@H](C)C(=O)[C@H](C)[C@@H](O)[C@]1(C)O` [clarithromycin] the “CLm(6β)-endo values during treatment (daily means)” value was 1.46 to 1.74 mL/min.
